Antibody variant affinities, Ab-14 heavy chain, assay 1

From the AlphaSeq antibody data of Engelhart et al. 2022 (doi:10.1038/s41597-022-01779-4), copy in the FLAb collection.

Antigen: PDVDLGDISGINAS, a 14-residue peptide of the SARS-CoV-2 spike HR2 region.

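Library AAYL49 holds single substitutions and randomly drawn double and triple substitutions in the CDRs. In AlphaSeq, yeast of one mating type display the scFv and yeast of the other type display the target. Mating (16 h, 30 °C) was followed by selection of diploids and sequencing of their barcodes. Each replicate has its own calibration line, from reference interactions of the BCL2 family. Mating was done three times.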

Parent: Ab-14, a human scFv built as VH, the linker GGGGSGGGGSGGGGS, VL. Only the CDRs of the heavy chain vary.
VH: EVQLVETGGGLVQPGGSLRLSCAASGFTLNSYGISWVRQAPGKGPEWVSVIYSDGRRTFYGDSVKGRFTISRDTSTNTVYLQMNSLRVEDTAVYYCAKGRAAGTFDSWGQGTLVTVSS
VL: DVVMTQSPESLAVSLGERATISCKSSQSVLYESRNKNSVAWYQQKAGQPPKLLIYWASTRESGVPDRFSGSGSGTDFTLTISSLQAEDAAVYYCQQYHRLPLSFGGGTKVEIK

Each variant is given by its three heavy chain CDRs, as the data file delimits them; those of the parent are GFTLNSYGIS, VIYSDGRRTFYGDSVK, GRAAGTFDS. Scale: log10 of Kd in nM, estimated from mating counts; low values are strong binders. Averages over replicates are reported, and they cover detected replicates only. "nd" means that the variant was in the library but no mating with the target was seen in any replicate; the authors take this as a sign of poor binding, and no number exists. Background: pairings of library AAYL49 with three empty control strains gave a value in 15% of cases (median 4.06, 5th percentile 2.83). Values in that range, when seen in few replicates, are hard to tell from nonspecific mating.

CDR-H1 | CDR-H2 | CDR-H3 | log10 Kd (nM), mean | detected
GETLNSYGIS | VIYSDGRRTFYKDSVK | GRAAGTFIS | nd | 0/3
GFVLNSYGIS | VIYLDGRRTFYGDSVK | GRAAGTFYS | nd | 0/3
GFTLNSYRIS | VIYSDGRRTFYGDSVF | GRAAGTADS | nd | 0/3
GFTLNWYGIS | VIYSDGRRYFYGDAVK | GRAAGTFDS | nd | 0/3
GFTLNSYGIS | VIYSDGRRTFEGDSVK | GCAAGTFDS | nd | 0/3
GFTLNSYGIS | VMYSVGRRTFYGDSVK | GRAAFTFDS | nd | 0/3
GFTLNSYGIS | FIYSDGRRTFYGDSVK | NRAAGTFYS | 4.03 | 2/3
GFTLNSYGQS | VIYSDGRRTFTGMSVK | GRAAGTFDS | 3.27 | 1/3
GQTLNSYGIS | VIYSDYRRTFYGDSVK | GRAAGTFWS | 3.06 | 2/3
GFTLNSWNIS | VIYSSGRRTFYGDSVK | GRAAGTFDS | 2.90 | 1/3
GFTLNSYGIS | VIYSDGRRAFYWDSVK | PRAAGTFDS | 2.63 | 1/3
GHTRNSYGIS | VIYSDGRRTRYGDSVK | GRAAGTFDS | nd | 0/3
GFTVNSYYIS | VIYSDGRRTFYGDSVK | GRAAGTFDS | nd | 0/3
GFTLNSYGIS | VISSDGWRTFNGDSVK | GRAAGTFDS | nd | 0/3
GFTFNSYGIS | VIYSDGRRTFYGDSVK | GRAAGTSDS | nd | 0/3
GFTLNYYGIS | VIYSDGRVTAYGDSVK | GRAAGTFDS | nd | 0/3
GITLNKYGIS | VIYSDGRRTHYGDSVK | GRAAGTFDS | nd | 0/3
KFTLNSYGIS | VIYSDGTRTFYIDSVK | GRAAGTFDS | nd | 0/3
GFTLNSYGIS | VIYEDLRRTFYGDSVK | GRAQGTFDS | 4.18 | 1/3
GFTLNSYGIS | VIYSDARTEFYGDSVK | GRAAGTFDS | nd | 0/3
GFTLISYGIS | VIYSDGRRTFYSDSVK | RRAAGTFDS | 5.06 | 1/3
GFTLNSYGIS | VVYSDGRRTFYADSVK | SRAAGTFDS | 5.13 | 2/3
GCTLNSYGIS | VIYSDGIRTFYGDSVK | GRAAETFDS | nd | 0/3
GFTLRSYGIS | VIYFDGRRTFYGDSVK | GRALGTFDS | 4.66 | 2/3
GSTLNSYGRS | EIYSDGRRTFYGDSVK | GRAAGTFDS | 3.52 | 1/3
GHTLNSYGID | VIYSDGRRTFYWDSVK | GRAAGTFDS | nd | 0/3
GLTLNSYGKS | VIYSDGRRTFYGDSVK | GRAAGTFDN | 4.45 | 1/3
GKTLNSGGIS | VIYSDGRRTFYGDSVK | GRAAGTFMS | 4.41 | 2/3
GFTLWSYGIS | VIYSDGRRTFYGDSVK | GRAAGVIDS | 4.16 | 3/3
GFTLNSYGIS | VIVSYGRETFYGDSVK | GRAAGTFDS | nd | 0/3
GFTLPSYGIS | VIYSDERRTFYGDSAK | GRAAGTFDS | nd | 0/3

Second part, the sequence after the result:

log10 Kd (nM), mean | detected | CDR-H1 | CDR-H2 | CDR-H3
3.61 | 1/3 | GFTINSYGIS | VIYRDGRRTFYGDSVK | GRWAGTFDS
3.68 | 3/3 | GFTLNSYGIS | VIYSDGRRTKYGDSVK | GGAAGTFDS
nd | 0/3 | GFTLNSYGIE | VIYSDGYRTFYGDSVK | GRAAGTDDS
nd | 0/3 | GFTLNCYGIS | VIYSDGRRTFYGWSVK | ERAAGTFDS
5.54 | 1/3 | GFTLNSYGIS | VIYSDGRRTVYGDSVK | GRAANTFIS
nd | 0/3 | GFTLNSYGIS | VIYSCGRNTFYGDSVK | GRHAGTFDS
5.37 | 1/3 | GFTLNSYGIS | VIYSDGRRTFIVDVVK | GRAAGTFDS
nd | 0/3 | GFTLNSYGIS | VISSDGRPTFYGDSVK | RRAAGTFDS
nd | 0/3 | GFTLNFYGIS | VIYSDGRRTFYGDSVK | GRAARTGDS
4.22 | 1/3 | GFTLNSYGIS | VIYSDGRVWFGGDSVK | GRAAGTFDS
4.19 | 3/3 | GFTLNTYGIS | VIYSDSKRTFYGDSVK | GRAAGTFDS
nd | 0/3 | GGTLNSYSIS | VIYSDGRRTFYGDSVK | GRAAGLFDS
nd | 0/3 | GFTLNSYGIS | VQYSDGRPTFYIDSVK | GRAAGTFDS
4.48 | 1/3 | GFTYNSYGIS | VIYSDGRRTDYGDSVK | GRAAGAFDS
3.48 | 1/3 | GFTLNSYGIS | VIYSDGPRTFYHDSVK | GRAAGVFDS
3.49 | 1/3 | LFTLNSYGIS | VIYSDGRRTFYGDSVK | HRAADTFDS
3.90 | 1/3 | GGTLNEYGMS | VIYSDGRRTFYGDSVK | GRAAGTFDS
nd | 0/3 | GFTLNSYGIS | MIYSDGRRTFYGDSYK | GRAQGTFDS
3.55 | 1/3 | GFQLNSYMIS | VIYSDGRRTFYKDSVK | GRAAGTFDS
3.05 | 1/3 | LFTLNSYGIS | VIYSDGRRTFYGDSVK | KRAAGTFDS
nd | 0/3 | GFTLNSYLIS | VIYSRGRRTFYGDSVN | GRAAGTFDS
4.97 | 1/3 | GFTLNSYGFS | RIYSDGRRTFYGDSVY | GRAAGTFDS
nd | 0/3 | GFTLNSYGIC | VIYSDGWRTFRGDSVK | GRAAGTFDS
5.74 | 1/3 | GFTLNNYGDS | VIYSDGRRTFYGDSVK | GRAAGTFDE
3.81 | 1/3 | GFTLNSLEIS | VIYSDGRRTFYGDSVK | GRAAKTFDS
nd | 0/3 | GFTLNFYGIS | VIYSDGVRTFYGDSVK | GRAATTFDS
2.26 | 3/3 | GMTLNSYGIS | VIYSDGRRTFYGNRVK | GRAAGTFDS
nd | 0/3 | GFTLNGYGIS | VIYSDGRNTFYGDSVK | GRAAGTFNS
nd | 0/3 | GFTLPSYGKS | VIYSDGRRTFYGDSVK | GRAAGQFDS
nd | 0/3 | GFTLNSYGNS | VIYSNGRRTFYGDSVK | GRAMGTFDS
nd | 0/3 | GFTLNSYGIS | IIKSDGRRTFYGDSVK | GRAAGTFDL
0.02 | 3/3 | GFALNSYGIS | VIYSDGRRTYYKDSVK | GRAAGTFDS

The last 5 entries again:

CDR-H1	CDR-H2	CDR-H3	log10 Kd (nM), mean	detected
GFTLNGYGIS	VIYSDGRNTFYGDSVK	GRAAGTFNS	nd	0/3
GFTLPSYGKS	VIYSDGRRTFYGDSVK	GRAAGQFDS	nd	0/3
GFTLNSYGNS	VIYSNGRRTFYGDSVK	GRAMGTFDS	nd	0/3
GFTLNSYGIS	IIKSDGRRTFYGDSVK	GRAAGTFDL	nd	0/3
GFALNSYGIS	VIYSDGRRTYYKDSVK	GRAAGTFDS	0.02	3/3

For reference, the parent read 0.65 as the reference entry and 4.11 (one replicate of three) as a member of this library.